Earlier results on two compounds are cited in PMC6798786 (Brain Communications, 2019).

Protein sequences, listed by entry. Tags and fused reporters are not part of them. Residues count along the entry.
UniProt P41595, whole entry: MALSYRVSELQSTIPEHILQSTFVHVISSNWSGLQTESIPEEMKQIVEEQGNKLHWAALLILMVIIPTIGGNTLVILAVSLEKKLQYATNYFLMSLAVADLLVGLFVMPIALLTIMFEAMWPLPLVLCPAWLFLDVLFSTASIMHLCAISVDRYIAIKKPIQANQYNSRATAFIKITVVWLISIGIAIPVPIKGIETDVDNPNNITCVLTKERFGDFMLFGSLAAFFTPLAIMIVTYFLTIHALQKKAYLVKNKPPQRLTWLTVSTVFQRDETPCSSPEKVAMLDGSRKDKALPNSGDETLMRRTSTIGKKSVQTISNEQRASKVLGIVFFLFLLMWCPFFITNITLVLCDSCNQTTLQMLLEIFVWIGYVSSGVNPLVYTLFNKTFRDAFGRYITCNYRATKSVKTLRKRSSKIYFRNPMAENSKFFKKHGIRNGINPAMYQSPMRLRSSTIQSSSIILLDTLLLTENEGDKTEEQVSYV
UniProt P28335, 33-458: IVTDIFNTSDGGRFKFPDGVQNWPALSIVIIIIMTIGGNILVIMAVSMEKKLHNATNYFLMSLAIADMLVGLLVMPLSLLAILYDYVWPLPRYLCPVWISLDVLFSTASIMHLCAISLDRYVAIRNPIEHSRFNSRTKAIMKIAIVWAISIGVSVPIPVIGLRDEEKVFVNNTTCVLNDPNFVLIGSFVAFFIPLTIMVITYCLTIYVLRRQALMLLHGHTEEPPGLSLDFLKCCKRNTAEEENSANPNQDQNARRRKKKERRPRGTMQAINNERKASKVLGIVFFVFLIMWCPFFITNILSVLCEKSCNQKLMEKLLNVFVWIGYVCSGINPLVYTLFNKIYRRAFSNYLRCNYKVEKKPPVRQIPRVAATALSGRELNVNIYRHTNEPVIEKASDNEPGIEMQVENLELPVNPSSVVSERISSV

SMILES strings stand for the structures. Read-outs that look alike come from different tables or passages of the source.

In data set [1] the target is human 5-HT2BR (Homo sapiens, UniProt P41595).
Data set [2] addresses human 5-HT2CR (Homo sapiens, UniProt P28335). The note with it: read-out: 5-HT2CR (nM), Table S3; commercially available compounds known to bind 5-HT2BR; ref Roth et al., 2000; cited from earlier work.

In the case of `CC(N)Cc1c[nH]c2ccc(OCc3cccs3)cc12` (stereo not drawn), the Ki in data set [1] (commercially available compounds known to bind 5-HT2BR; ref Roth et al., 2000; read-out: 5-HT2BR (nM), Table S3; cited from earlier work) was 3.2 nM. On to `Cl.Clc1cccc(N2CCNCC2)c1`, for which the Ki in data set [1] (read-out: 5-HT2BR (nM), Table S3; commercially available compounds known to bind 5-HT2BR; ref Roth et al., 2000; cited from earlier work) is 30.3 nM; in data set [2], 13 nM.
